Measurements taken from patent US5460942A, “The catalytic moiety of the glucose-6-phosphatase system: the gene and protein and related mutations” (The United States of America as represented by the …, priority 1993, dated 1995).

Experiments:
[1] = substrate: O=P(O)(O)OC[C@H]1OC(O)[C@@H](O)[C@@H](O)[C@@H]1O; experiment: cells, lysate or membranes named; conditions: other: deoxycholate-disrupted microsomes of pSVLmG-6-Pase-transfected COS-1 cells; mean ± SEM; pH 6.5
[2] = substrate: O=P(O)(O)OC[C@H]1OC(O)[C@H](O)[C@@H](O)[C@@H]1O; experiment: cells, lysate or membranes named; conditions: other: deoxycholate-disrupted microsomes of pSVLmG-6-Pase-transfected COS-1 cells; mean ± SEM; pH 6.5

B1: murine G-6-Pase (Mus musculus) (protein)
chain: MEEGMNILHDFGIQSTRYLQVNYQDSQDWFILVSVIADLRNAFYVLFPIWFHLKETVGINLLWVAVVGDWFNLVFKWILFGQRPYWWVLDTDYYSNSSVPIIKQFPVTCETGPGSPSGHAMGAAGVYYVMVTSTLAIFRGKKKPTYGFRCLNVILWLGFWAVQLNVCLSRIYLAAHFPHQVVAGVLSGIAVAETFSHIRGIYNASLRKYCLITIFLFGFALGFYLLLKGLGVDLLWTLEKAKRWCERPEWVHLDTTPFASLFKNLGTLLGLGLALNSSMYRKSCKGELSKLLPFRFACIVASLVLLHLFDSLKPPSQVELIFYILSFCKSATVPFASVSLIPYCLARILGQTHKKSL
Km [1]: 670 µM
Km [2]: 650 µM
